Data as given in BindingDB's records for doi:10.1038/sj.bjp.0701367 (Kyoto University, 1997).

By UniProt entry, the sequences of proteins in these tests, tags left out. Where a name states a change or a piece, a line headed by the entry shows the natural chain unless it says otherwise.
UniProt P32240: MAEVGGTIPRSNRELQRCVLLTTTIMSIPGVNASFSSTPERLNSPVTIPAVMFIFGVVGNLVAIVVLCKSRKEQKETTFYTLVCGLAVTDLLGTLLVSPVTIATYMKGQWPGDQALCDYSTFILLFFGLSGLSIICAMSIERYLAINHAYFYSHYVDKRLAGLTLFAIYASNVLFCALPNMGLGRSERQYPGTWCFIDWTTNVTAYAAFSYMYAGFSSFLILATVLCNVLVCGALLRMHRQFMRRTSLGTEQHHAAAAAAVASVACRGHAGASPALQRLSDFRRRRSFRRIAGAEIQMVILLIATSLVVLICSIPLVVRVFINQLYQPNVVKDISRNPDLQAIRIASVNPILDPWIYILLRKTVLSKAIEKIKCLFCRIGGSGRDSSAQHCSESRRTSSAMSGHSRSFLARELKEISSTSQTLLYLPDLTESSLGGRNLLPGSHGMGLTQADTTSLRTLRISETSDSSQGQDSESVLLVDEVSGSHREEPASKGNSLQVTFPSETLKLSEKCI

Molecular target: Prostaglandin E2 receptor EP4 subtype (Mus musculus, UniProt P32240)

Ki: 1.9 nM
SMILES: CCCCC[C@H](O)/C=C/[C@H]1[C@H](O)CC(=O)[C@@H]1C/C=C\CCCC(=O)O [DINOPROSTONE]
